From PubChem BioAssay
Only some compounds are listed: those with a hit (about 1.8% of all), similar ones and a draw of the others.
Cneo AK release: Cryptococcus neoformans lysis via adenylate kinase release | lysis activity, % at 15 µM | C. neoformans lysis, adenylate kinase release luminescence, 4 h; normalised: neutral wells 0, clomiphene wells 100 | AID 651654 | 360,000 compounds, 0.2% hits;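 active = mean lysis activity across replicates of at least 80%, whatever share of replicates individually reach that level; inactive = mean lysis activity below 80%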
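read-out = cell lysis signal | test system = log-phase Cryptococcus neoformans yeast cells | input = cells at 5 × 10^6 per mL | medium = fresh YPD growth medium | signal = luminescent adenylate kinase detection reagent | timing = 4 h at 37 °C static, read 1 h later | dosing = single dose | controls = Clomiphene as positive lysis control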
E-sel inducer: E-selectin induction on HUVECs. P16581. HUVEC E-selectin immunofluorescence imaging; normalized: neutral wells 0, TNF-alpha wells 100. 260,000 compounds, 0.37% hits. activation, % at 7.58 µM. AID 686992;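 active = mean E-selectin-positive cell signal at least 10% of the positive control, reached in at least 60% of replicates, without over 20% cell loss; inconclusive = no rule given, readout overlaps actives, possibly toxicity-flagged; inactive = the rest, including those meeting only one limit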
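assay system = HUVEC, human umbilical vein endothelial cells | input = 3,000 HUVEC seeded per well | medium = EGM-2 growth medium on 0.1% gelatin-coated wells | dosing = one compound dose added by pin transfer | signal = immunofluorescence imaging | read-out basis = % PE-positive cells | control set = TNF-alpha, DMSO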
DENV2 CPE rescue: inhibitors of DENV2 cytopathic effect | DENV2-infected cells, cytopathic effect rescue, plate reader | CPE inhibition, % at 9.99 µM | 350,000 compounds, 1.7% hits | AID 651640; in the data active = CPE inhibition above about 20%, passing the limit was not always enough; inconclusive = no clear call, values can overlap the other calls; tested in BHK-21 cells
Yeast UUG start: yeast start codon fidelity modulation. S. cerevisiae UUG-firefly luciferase reporter, luminescence/redox ratio. activity score, % at 18.7 µM. 0.13% of 350,000 active;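 active = replicate mean at a twofold rise or more, about +100% in these data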;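 also: firefly luciferase made from a UUG start codon reports start codon fidelity; reporter light over untreated wells divided by growth signal over untreated wells; some hits fall short of that in this replicate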
Large screens that a line does not name were inactive.

C[C@@H]1CN([C@H](C)CO)C(=O)Cc2cc(NS(=O)(=O)c3ccccc3)ccc2O[C@H]1CN(C)Cc1ccc(Cl)c(Cl)c1	DENV2 CPE rescue 33
Cc1ccc(S(=O)(=O)Nc2ccc3c(c2)CC(=O)N([C@@H](C)CO)C[C@H](C)[C@H](CN(C)Cc2ccc(-c4ccccc4)cc2)O3)cc1	DENV2 CPE rescue inconclusive
C[C@H]1CN([C@@H](C)CO)C(=O)Cc2cc(NC(=O)NC3CCCCC3)ccc2O[C@@H]1CN(C)S(C)(=O)=O	none
COc1ccccc1NC(=O)N1C[C@H]2[C@@H](c3ccccc31)[C@H](CO)N2C(=O)c1ccccc1	none
COc1ccc(CN(C)C[C@H]2Oc3ccc(NS(=O)(=O)c4ccc(Cl)cc4)cc3CC(=O)N([C@H](C)CO)C[C@H]2C)cc1	none
C[C@@H]1CN([C@@H](C)CO)C(=O)Cc2cc(NS(=O)(=O)c3ccccc3)ccc2O[C@@H]1CN(C)Cc1ccc(-c2ccccc2)cc1	DENV2 CPE rescue 44
COc1ccc(CN(C)C[C@H]2Oc3ccc(NS(=O)(=O)c4ccc(Cl)cc4)cc3CC(=O)N([C@@H](C)CO)C[C@@H]2C)cc1	DENV2 CPE rescue 25
Cc1ccc(S(=O)(=O)Nc2ccc3c(c2)CC(=O)N([C@@H](C)CO)C[C@H](C)[C@@H](CN(C)Cc2ccc(-c4ccccc4)cc2)O3)cc1	none
C[C@H]1CCCCO[C@H](CN(C)C(=O)c2ccncc2)[C@@H](C)CN([C@@H](C)CO)C(=O)c2cc(NC(=O)Cc3ccccc3)ccc2O1	Cneo AK release 113 (no result: E-sel inducer)
C[C@H](CO)N1C[C@H](C)[C@@H](CN(C)C(=O)c2ccncc2)OCCCC[C@H](C)Oc2ccc(NC(=O)Cc3ccccc3)cc2C1=O	Cneo AK release 102 (no result: E-sel inducer)
C[C@@H]1CCCCO[C@H](CN(C)C(=O)c2ccncc2)[C@@H](C)CN([C@@H](C)CO)C(=O)c2cc(NC(=O)Cc3ccccc3)ccc2O1	none (no result: E-sel inducer)
COc1ccc(CNC(=O)C[C@H]2CC[C@@H](NC(=O)c3cccc(F)c3)[C@H](CO)O2)cc1	none
COC(=O)C[C@@H]1CC[C@@H]2[C@H](COc3ccc(NC(=O)NCc4ccccc4)cc3C(=O)N2C)O1	none (no result: Cneo AK release, DENV2 CPE rescue)
COc1ccccc1C#Cc1ccc2c(c1)[C@@H]1[C@@H](CCN1C(=O)c1ccccc1)[C@H](CO)N2	DENV2 CPE rescue 45 (no result: Cneo AK release, Yeast UUG start)
COc1ccccc1C#Cc1ccc2c(c1)[C@@H]1[C@@H](CCN1C(=O)Cc1ccccc1)[C@@H](CO)N2	none
COc1ccccc1C#Cc1ccc2c(c1)[C@@H]1[C@@H](CCN1C(=O)c1ccccc1)[C@@H](CO)N2	none
COc1ccccc1C#Cc1ccc2c(c1)[C@@H]1[C@@H](CCN1C(=O)Cc1ccccc1)[C@H](CO)N2	DENV2 CPE rescue 42 (no result: Cneo AK release, Yeast UUG start)
COc1ccccc1NC(=O)N(C)C[C@@H]1Oc2ncc(C#CC(C)C)cc2C(=O)N([C@H](C)CO)C[C@H]1C	none (no result: Cneo AK release, DENV2 CPE rescue, Yeast UUG start)
COc1ccccc1N(CC(=O)NCCSc1ccccn1)S(=O)(=O)c1ccccc1	E-sel inducer 37
CCC(=O)N1CC2(C1)[C@H](c1ccc(-c3ccc(C#N)cc3)cc1)[C@@H](CO)N2C(C)=O	none (no result: Cneo AK release, Yeast UUG start)
O=C(C[C@@H]1CC[C@@H]2[C@H](COC[C@H](O)CN2C(=O)Nc2ccc(Cl)cc2)O1)NC1Cc2ccccc2C1	none (no result: Cneo AK release, Yeast UUG start)
CCCc1ccc2c(C)cccc2n1	none (no result: Cneo AK release, E-sel inducer, Yeast UUG start)
CCc1ccc2c(F)cccc2n1	DENV2 CPE rescue 60
Cc1ccc(NC(=O)Cn2cccc2C2=NC(c3ccccc3)CO2)cc1C (stereo not given)	DENV2 CPE rescue 103 (no result: E-sel inducer)
COc1ccc2c3c(n(C)c2c1)[C@@H](CO)N(Cc1ccccc1)CC31CN(C(=O)Nc2cccc(F)c2)C1	none (no result: Cneo AK release, Yeast UUG start)
CCOC(=O)[C@H](O)[C@@H](O)c1cccc([C@H](O)[C@@H](O)C(=O)OCC)c1	DENV2 CPE rescue 41
Cc1ccc(S(=O)(=O)Nc2ccc3c(c2)C(=O)N([C@H](C)CO)C[C@@H](C)[C@H](CN(C)S(=O)(=O)c2c(C)noc2C)OCCCC[C@H](C)O3)cc1	none (no result: E-sel inducer)
COc1ccc(CCNC2CC(=O)N(C3CCCCC3)C2=O)cc1OC (stereo not given)	DENV2 CPE rescue 26
Fc1cccc(CCN2C(=S)NC[C@@H]2Cc2ccccc2)c1	Cneo AK release 142
CCCC[C@@H]1CNC(=S)N1CCc1cccc(F)c1	none
C[C@@H]1CN([C@@H](C)CO)C(=O)c2cc(C3=CCCCC3)cnc2O[C@@H]1CN(C)Cc1ccncc1	none
COc1ccc(C(=O)N/N=C(\C)CC(=O)Nc2ccc(N(C)C)cc2)c(OC)c1	DENV2 CPE rescue 116
COc1ccccc1C(CNC(=O)COc1cc(C)ccc1Cl)N1CCCC1 (stereo not given)	none (no result: Cneo AK release, Yeast UUG start)
COc1ccc(C(CNC(=O)COc2cc(C)ccc2Cl)N2CCCCC2)cc1 (stereo not given)	DENV2 CPE rescue 37 (no result: Cneo AK release, E-sel inducer, Yeast UUG start)
CNC[C@H]1Oc2c(NS(=O)(=O)c3ccc(Cl)cc3)cccc2C(=O)N([C@H](C)CO)C[C@H]1C	DENV2 CPE rescue 79
CNC[C@H]1Oc2c(NS(=O)(=O)c3ccc(Cl)cc3)cccc2C(=O)N([C@H](C)CO)C[C@@H]1C	none
CNC[C@@H]1Oc2c(NS(=O)(=O)c3ccc(Cl)cc3)cccc2C(=O)N([C@H](C)CO)C[C@H]1C	Cneo AK release 87
CO[C@@H]1CN(C)C(=O)c2cc(NC(=O)Nc3ccccc3)ccc2OC[C@H](C)N(C(=O)CN(C)C)C[C@@H]1C	none
C[C@@H]1CN([C@H](C)CO)C(=O)c2cccc(NS(=O)(=O)c3cn(C)cn3)c2O[C@H]1CN(C)Cc1ccc(C(F)(F)F)cc1	none
Cc1ccc(-c2csc(NCCn3c(C)nc4cc(C(F)(F)F)ccc43)n2)cc1	DENV2 CPE rescue 45 (no result: E-sel inducer)
COc1ccc2c3c([nH]c2c1)[C@@H](CO)N(Cc1ccccc1F)CC31CN(C)C1	none (no result: Cneo AK release, Yeast UUG start)
COc1ccc2c3c([nH]c2c1)[C@H](CO)N(Cc1ccccc1)CC31CN(S(=O)(=O)c2ccc(C)cc2)C1	DENV2 CPE rescue 36 (no result: Cneo AK release, Yeast UUG start)
CCS(=O)(=O)N1CC2(CN(Cc3ccccc3F)[C@@H](CO)c3[nH]c4cc(OC)ccc4c32)C1	DENV2 CPE rescue 20 (no result: Cneo AK release, Yeast UUG start)
COc1ccc2c3c([nH]c2c1)[C@@H](CO)N(Cc1ccccc1)CC31CN(S(=O)(=O)c2ccc(C)cc2)C1	DENV2 CPE rescue 20 (no result: Cneo AK release, Yeast UUG start)
COc1ccc2c3c([nH]c2c1)[C@H](CO)N(Cc1cc(F)ccc1F)CC31CN(C(=O)CN(C)C)C1	DENV2 CPE rescue 26 (no result: Cneo AK release, Yeast UUG start)
COC(=O)C(CC#Cc1ccc2c(c1)[C@]1(C(=O)N2)[C@H](c2ccccc2OCCO)N2[C@H](c3ccccc3)[C@H](c3ccccc3)OC(=O)[C@H]2[C@@H]1C(=O)N1CCN(c2ncccn2)CC1)C(=O)OC	none (no result: E-sel inducer)
CN(CC(=O)Nc1ccccc1C(=O)NC1CC1)Cc1ccccc1F	DENV2 CPE rescue 78 (no result: Cneo AK release, E-sel inducer, Yeast UUG start)
CSc1ccc(CN(C)CC(=O)Nc2ccccc2C(=O)NC2CC2)cc1	DENV2 CPE rescue inconclusive
COc1ccc(NC(=O)Nc2ccc3c(c2)CC(=O)N([C@@H](C)CO)C[C@H](C)[C@H](CN(C)S(=O)(=O)c2cccs2)O3)cc1	none (no result: DENV2 CPE rescue)
